Laboratory results from patent publication US20050196743A1.

Chains of the proteins cited; added tags and fusions are not shown. Lines headed by an entry give the natural chain unless they say otherwise; changes in a name come on top.
UniProt P01149: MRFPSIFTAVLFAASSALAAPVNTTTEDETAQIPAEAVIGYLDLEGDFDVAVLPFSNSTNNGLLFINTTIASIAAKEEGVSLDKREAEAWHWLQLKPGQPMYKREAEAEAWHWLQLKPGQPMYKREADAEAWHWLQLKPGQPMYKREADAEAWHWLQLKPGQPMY

Molecular target: T1, endogenous yeast receptor Ste2p (Saccharomyces cerevisiae) (UniProt D6VTK4)
T1 sequence (looked up): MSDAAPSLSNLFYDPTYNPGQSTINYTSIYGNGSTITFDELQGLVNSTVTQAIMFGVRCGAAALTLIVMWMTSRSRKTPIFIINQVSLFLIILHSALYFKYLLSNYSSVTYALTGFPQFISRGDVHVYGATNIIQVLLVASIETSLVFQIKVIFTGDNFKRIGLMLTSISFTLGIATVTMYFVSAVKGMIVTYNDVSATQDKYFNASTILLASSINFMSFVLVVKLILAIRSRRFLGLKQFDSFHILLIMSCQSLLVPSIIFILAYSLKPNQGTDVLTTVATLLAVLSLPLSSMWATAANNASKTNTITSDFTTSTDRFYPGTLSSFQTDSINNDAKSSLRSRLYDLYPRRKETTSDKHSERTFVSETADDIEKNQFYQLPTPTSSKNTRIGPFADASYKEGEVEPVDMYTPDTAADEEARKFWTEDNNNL
Assay: cell-based or functional assay

EC50 of induction of the Aga2 protein (ELISA-like assay of DTT extracts detected with EndoH-treated Sag1p^21-352, anti-Xpress and anti-mouse IgG-HRP): 37 nM
Substance: α-factor (from UniProt P01149 90-102) (peptide)
